Publication PMC12669278, “VDAC1-interacting proteins: binding site mapping and their derived peptides induce apoptosis and multifaceted cellular effects” (Apoptosis, 2025)

Experiments:
U-87MG cells [1] = type: cell-based, human; settings: 24 h
Description: U-87MG (human glioblastoma; epithelial cells, ATCC: HTP-14) and PC-3 (human prostate adenocarcinoma; epithelial cells, ATCC: CRL-1435) were purchased from ATCC (Manassas, VA, USA). The cells were cultured in a humidified sterile incubator at 37 °C, with 5% CO2 in recommended growth medium supplemented with 10% FBS, 100 U/ml penicillin, and 100 μg/ml streptomycin. Mycoplasma contamination was routinely evaluated on cell lines. The cell lines were also authenticated by routine monitoring of cell morphology and proliferation and cultured up to 15 passages. Cells were seeded at a density of 1 × 10^5 cells per well in 12-well plates for apoptotic cell death analyses and at 2 × 10^5 cells per well in 6-well plates for protein and RNA extractions. After seeding, cells were incubated for 24 h at 37 °C in a humidified atmosphere containing 5% CO₂ in serum-free medium, in the absence or presence of the indicated peptide. Following treatment, cells were collected, centrifuged at 1500 × g for 5 min, washed with phosphate-buffered saline (PBS), and processed for the designated assays. Cells were analyzed for cell survival using an XTT assay, according to the manufacturer’s instructions. Briefly, the activation solution was added to the XTT solution, which is converted to orange formazan by mitochondrial dehydrogenases in live cells.

U-87MG cells [2] = type: cell-based; settings: 24 h, serum-free medium, PI staining, read-out: IC50, cell death

| SMILES | IC50 (U-87MG cells [1]) [µM] | IC50 (U-87MG cells [2]) [µM] | IC50 (U-87MG cells [1]; U-87MG, serum-free medium, 0-100 μM, read-out: IC50, cell viability analyzed by XTT) [µM] |
| --- | --- | --- | --- |
| CSCC[C@H](NC(=O)[C@H](Cc1c[nH]cn1)NC(=O)[C@H](C)NC(=O)[C@H](CCSC)NC(=O)[C@H](CC(C)C)NC(=O)[C@H](CC(=O)O)NC(=O)[C@@H](NC(=O)[C@@H](NC(=O)[C@H](CCCNC(=N)N)NC(=O)[C@H](CC(N)=O)NC(=O)[C@H](CO)NC(=O)[C@H](Cc1ccc(O)cc1)NC(=O)CNC(=O)[C@H](Cc1ccccc1)NC(=O)[C@H](CCC(=O)O)NC(=O)[C@@H](N)CC(N)=O)C(C)C)C(C)C)C(=O)N[C@@H](C)C(=O)N[C@@H](CO)C(=O)N[C@@H](CCCCN)C(=O)N[C@@H](CCC(=O)O)C(=O)N[C@@H](CCCNC(=N)N)C(=O)N[C@H](CCCNC(=N)N)C(=O)N[C@@H](CCCNC(=N)N)C(=O)N[C@@H](CCCCN)C(=O)O [2D1-Nuc] | > 25 |  |  |
| CC[C@H](C)[C@H](NC(=O)[C@H](CCC(N)=O)NC(=O)[C@H](CC(C)C)NC(=O)CNC(=O)[C@@H]1CCCN1C(=O)[C@H](CCC(=O)O)NC(=O)[C@H](CCCCN)NC(=O)CNC(=O)[C@H](C)NC(=O)[C@H](CCCCN)NC(=O)[C@H](CC(C)C)NC(=O)[C@H](Cc1ccccc1)NC(=O)[C@H](CCC(=O)O)NC(=O)[C@@H]1CCCN1C(=O)[C@H](Cc1c[nH]cn1)NC(=O)[C@H](CCC(=O)O)NC(=O)[C@@H](NC(=O)[C@@H](NC(=O)[C@@H](N)CCSC)C(C)C)C(C)C)C(=O)N[C@@H](Cc1c[nH]c2ccccc12)C(=O)N[C@@H](CCCNC(=N)N)C(=O)N[C@H](C(=O)N[C@@H](CCC(=O)O)C(=O)N[C@@H](CCCCN)C(=O)N[C@@H](Cc1ccccc1)C(=O)N[C@@H](CCCNC(=N)N)C(=O)N[C@@H](CCC(N)=O)C(=O)N[C@H](C(=O)N[C@@H](CCCCN)C(=O)N[C@H](C(=O)N[C@@H](Cc1c[nH]c2ccccc12)C(=O)N[C@@H](Cc1ccccc1)C(=O)N[C@@H](CCC(N)=O)C(=O)N[C@@H](CC(N)=O)C(=O)N[C@@H](CCCNC(=N)N)C(=O)N[C@@H](CCCNC(=N)N)C(=O)N[C@@H](CCSC)C(=O)N[C@@H](CCCCN)C(=O)N[C@@H](Cc1c[nH]c2ccccc12)C(=O)N[C@@H](CCCCN)C(=O)N[C@@H](CCCCN)C(=O)O)[C@@H](C)CC)[C@@H](C)CC)C(C)C [2G8-Antp] |  | 8 | > 100 |
| CC[C@H](C)[C@H](NC(=O)[C@H](CCC(N)=O)NC(=O)[C@H](CC(C)C)NC(=O)CNC(=O)[C@@H]1CCCN1C(=O)[C@H](CCC(=O)O)NC(=O)[C@H](CCCCN)NC(=O)CNC(=O)[C@H](C)NC(=O)[C@H](CCCCN)NC(=O)[C@H](CC(C)C)NC(=O)[C@H](Cc1ccccc1)NC(=O)[C@H](CCC(=O)O)NC(=O)[C@@H]1CCCN1C(=O)[C@H](Cc1c[nH]cn1)NC(=O)[C@H](CCC(=O)O)NC(=O)[C@@H](NC(=O)[C@@H](NC(=O)[C@H](CCSC)NC(=O)[C@H](CCCCN)NC(=O)[C@H](CCCCN)NC(=O)[C@H](Cc1c[nH]c2ccccc12)NC(=O)[C@H](CCCCN)NC(=O)[C@H](CCSC)NC(=O)[C@H](CCCNC(=N)N)NC(=O)[C@H](CCCNC(=N)N)NC(=O)[C@H](CC(N)=O)NC(=O)[C@H](CCC(N)=O)NC(=O)[C@H](Cc1ccccc1)NC(=O)[C@H](Cc1c[nH]c2ccccc12)NC(=O)[C@@H](NC(=O)[C@H](CCCCN)NC(=O)[C@@H](NC(=O)[C@H](CCC(N)=O)NC(=O)[C@@H](N)CCCNC(=N)N)[C@@H](C)CC)[C@@H](C)CC)C(C)C)C(C)C)C(=O)N[C@@H](Cc1c[nH]c2ccccc12)C(=O)N[C@@H](CCCNC(=N)N)C(=O)N[C@H](C(=O)N[C@@H](CCC(=O)O)C(=O)N[C@@H](CCCCN)C(=O)N[C@@H](Cc1ccccc1)C(=O)O)C(C)C [Antp-2G8] | > 100 |  |  |

Like-named read-outs stand apart in the source and are kept apart here.
